Patent US20160326143A1, “COMPOUNDS AND USES” (AstraZeneca AB, priority 2015, published 2016)

Amino acid sequences for entries named in this document (tags omitted). A change or cut given only in a name is not applied to a line headed by its entry.
UniProt Q16873: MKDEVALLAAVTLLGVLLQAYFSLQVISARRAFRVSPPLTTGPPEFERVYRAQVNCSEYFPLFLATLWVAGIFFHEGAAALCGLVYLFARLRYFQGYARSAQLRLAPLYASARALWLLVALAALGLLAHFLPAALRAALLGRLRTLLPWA

Molecular target: human recombinant purified LTC4 synthase (Homo sapiens (Human), UniProt Q16873)
Settings: read-out: hLTC4 synthase IC50; Test B (Examples 62-65); substrate LTA4 methyl ester, product detected by LCMSMS; median of at least two determinations

IC50: 0.483 nM
Compound: CCCN(c1cnc(C(=O)[C@H]2C[C@@H]2C(=O)O)c(OC)n1)c1cc(Cl)c(F)cc1F [Example 64, (1S,2S)-2-({5-[(5-Chloro-2,4-difluorophenyl)(propyl)amino]-3-methoxypyrazin-2-yl}carbonyl)cyclopropanecarboxylic acid]
